Data on nine compounds can be found in patent publication US9586950B2 (MERCK SHARP & DOHME CORP., priority 2012, dated 2017).

Usually IC50 stands for the midpoint of a concentration-inhibition curve. Low values mean greater potency in that assay, high ones weaker potency in that assay.

For the experiment, the target named is hOX1R (orexin-1 receptor) (Rattus norvegicus, UniProt P56718). As to the kind of experiment: FLIPR Ca2+ Flux Assay, hOX1R FLIPR. Conditions: CHO cells, 70 pM Ala-6,12 human orexin-A agonist. The class given is cell-based. How it is done:
In a typical experiment the OX1 and OX2 receptor antagonistic activity of the compounds of the present invention was determined in accordance with the following experimental method. For intracellular calcium measurements, Chinese hamster ovary (CHO) cells expressing the rat orexin-1 receptor or the human orexin-2 receptor, are grown in Iscove's modified DMEM containing 2 mM L-glutamine, […], 1% hypoxanthine-thymidine supplement, 100 U/ml penicillin, 100 μg/ml streptomycin and 10% heat-inactivated fetal calf serum (FCS). The cells are seeded at 20,000 cells/well into Becton-Dickinson black 384-well clear bottom sterile plates coated with poly-D-lysine. All reagents were from GIBCO-Invitrogen Corp. The seeded plates are incubated overnight at 37° C. and 5% CO2. Ala-6,12 human orexin-A as the agonist is prepared as a 1 mM stock solution in 1% bovine serum albumin (BSA) and diluted in assay buffer (HBSS containing 20 mM HEPES, 0.1% BSA and 2.5 mM probenecid, pH7.4) for use in the assay at a final concentration of 70 pM. Test compounds are prepared as 10 mM stock solution in DMSO, then diluted in 384-well plates, first in DMSO, then assay buffer. On the day of the assay, cells are washed 3 times with 100 μl assay buffer and then incubated for 60 min (37° C., 5% CO2) in 60 μl assay buffer containing 1 μM Fluo-4AM ester, 0.02% pluronic acid, and 1% BSA. The dye loading solution is then aspirated and cells are washed 3 times with 100 μl assay buffer. 30 μl of that same buffer is left in each well. Within the Fluorescent Imaging Plate Reader (FLIPR, Molecular Devices), test compounds are added to the plate in a volume of 25 μl, incubated for 5 min and finally 25 μl of agonist is added. Fluorescence is measured for each well at 1 second intervals for 5 minutes and the height of each fluorescence peak is compared to the height of the fluorescence peak induced by 70 pM Ala-6,12 orexin-A with buffer in place of antagonist. […] Alternatively, compound potency can be assessed by a radioligand binding assay (described in Bergman et. al. Bioorg. Med. Chem. Lett. 2008, 18, 1425-1430) in which the inhibition constant (Ki) is determined in membranes prepared from CHO cells expressing either the OX1 or OX2 receptor. The intrinsic orexin receptor antagonist activity of a compound which may be used in the present invention may be determined by these assays.
(A change in cytosolic calcium serves as a functional read-out for many receptors and channels.)
The compound `COC(=O)c1c(C#N)ccnc1O[C@@H]1CC[C@@H](C)N(C(=O)c2ccc(OC)nc2-n2nccn2)C1` [Example 3, methyl 4-cyano-2-{[(3R,6R)-1-{[6-methoxy-2-(2H-1,2,3-triazol-2-yl)pyridin-3-yl]carbonyl}-6-methylpiperidin-3-yl]oxy}pyridine-3-carboxylate] displayed a half-maximal inhibitory concentration (IC50) of 10 µM.

Regarding `COC(=O)c1c(C#N)ccnc1O[C@@H]1CC[C@@H](C)N(C(=O)c2c(F)cccc2-c2nc(C)no2)C1` [Example 9, methyl 4-cyano-2-{[(3R,6R)-1-{[2-fluoro-6-(3-methyl-1,2,4-oxadiazol-5-yl)phenyl]carbonyl}-6-methylpiperidin-3-yl]oxy}pyridine-3-carboxylate], the concentration for half-maximal inhibition (IC50) came out at 1.89 µM.

With `COC(=O)c1c(C#N)ccnc1O[C@@H]1CC[C@@H](C)N(C(=O)c2ccc(F)cc2-c2noc(C)n2)C1` [Example 12, methyl 4-cyano-2-{[(3R,6R)-1-{[4-fluoro-2-(5-methyl-1,2,4-oxadiazol-3-yl)phenyl]carbonyl}-6-methylpiperidin-3-yl]oxy}pyridine-3-carboxylate], the IC50 is 2.53 µM.

`COC(=O)c1c(C#N)ccnc1O[C@@H]1CC[C@@H](C)N(C(=O)c2c(F)cccc2-c2noc(C)n2)C1` [Example 14, methyl 4-cyano-2-{[(3R,6R)-1-{[2-fluoro-6-(5-methyl-1,2,4-oxadiazol-3-yl)phenyl]carbonyl}-6-methylpiperidin-3-yl]oxy}pyridine-3-carboxylate]: the IC50 amounted to 1.68 µM.

Compound `COC(=O)c1c(C#N)ccnc1O[C@@H]1CC[C@@H](C)N(C(=O)c2cccc(C)c2-n2nccn2)C1` [Example 16, methyl 4-cyano-2-{[(3R,6R)-6-methyl-1-{[3-methyl-2-(2H-1,2,3-triazol-2-yl)phenyl]carbonyl}piperidin-3-yl]oxy}pyridine-3-carboxylate] registered an IC50 of 0.368 µM.

Compound `COC(=O)c1c(C#N)ccnc1O[C@@H]1CC[C@@H](C)N(C(=O)c2ccc(C)cc2-n2nccn2)C1` [Example 17, methyl 4-cyano-2-{[(3R,6R)-6-methyl-1-{[4-methyl-2-(2H-1,2,3-triazol-2-yl)phenyl]carbonyl}piperidin-3-yl]oxy}pyridine-3-carboxylate] displayed an IC50 of 1.44 µM.

`COC(=O)c1c(C#N)ccnc1O[C@@H]1CC[C@@H](C)N(C(=O)c2cccc(F)c2-c2ncccn2)C1` [Example 21, methyl 4-cyano-2-({(3R,6R)-1-[(3-fluoro-2-pyrimidin-2-ylphenyl)carbonyl]-6-methylpiperidin-3-yl}oxy)pyridine-3-carboxylate] gave an IC50 of 0.855 µM.

`COC(=O)c1c(C#N)ccnc1O[C@@H]1CC[C@@H](C)N(C(=O)c2c(F)cccc2-c2ncccn2)C1` [Example 24, methyl 4-cyano-2-({(3R,6R)-1-[(2-fluoro-6-pyrimidin-2-ylphenyl)carbonyl]-6-methylpiperidin-3-yl}oxy)pyridine-3-carboxylate]: the IC50 turned out to be 0.38 µM.

Compound `COC(=O)c1c(C#N)ccnc1O[C@@H]1CC[C@@H](C)N(C(=O)c2ccccc2C2CCC2)C1` [Example 26, Methyl 4-cyano-2-(((3R,6R)-1-(2-cyclobutylbenzoyl)-6-methylpiperidin-3-yl)oxy)nicotinate] came in with an IC50 of 1.1 µM.
